Experimental findings from patent publication US7875638B2, “Synthesis of epothilones, intermediates thereto, analogues and uses thereof” (Sloan-Kettering Institute for Cancer Research, priority 2002, dated 2011) are described below.

For data set [1] the following is noted: preliminary metabolic degradation studies.
For data set [2] the following is noted: preliminary metabolic degradation studies. This is another data set of the same source.

Consider “[17]ddEpoB [Compound 23, reference compound]”, for which the “Degradation on exposure to nude mouse plasma” value in data set [1] is not above 30 min. For the same substance, in data set [2], the “Degradation on exposure to human plasma” value is not above 30 min.
